Laboratory results reported in ChEMBL document CHEMBL5154682, “TDP-43 Modulation by Tau-Tubulin Kinase 1 Inhibitors: A New Avenue for Future Amyotrophic Lateral Sclerosis Therapy” (J Med Chem, 2022).

Protein sequences, listed by entry. Tags and fused reporters are not part of them. Lines headed by an entry give the natural chain unless they say otherwise; changes in a name come on top.
UniProt Q5TCY1: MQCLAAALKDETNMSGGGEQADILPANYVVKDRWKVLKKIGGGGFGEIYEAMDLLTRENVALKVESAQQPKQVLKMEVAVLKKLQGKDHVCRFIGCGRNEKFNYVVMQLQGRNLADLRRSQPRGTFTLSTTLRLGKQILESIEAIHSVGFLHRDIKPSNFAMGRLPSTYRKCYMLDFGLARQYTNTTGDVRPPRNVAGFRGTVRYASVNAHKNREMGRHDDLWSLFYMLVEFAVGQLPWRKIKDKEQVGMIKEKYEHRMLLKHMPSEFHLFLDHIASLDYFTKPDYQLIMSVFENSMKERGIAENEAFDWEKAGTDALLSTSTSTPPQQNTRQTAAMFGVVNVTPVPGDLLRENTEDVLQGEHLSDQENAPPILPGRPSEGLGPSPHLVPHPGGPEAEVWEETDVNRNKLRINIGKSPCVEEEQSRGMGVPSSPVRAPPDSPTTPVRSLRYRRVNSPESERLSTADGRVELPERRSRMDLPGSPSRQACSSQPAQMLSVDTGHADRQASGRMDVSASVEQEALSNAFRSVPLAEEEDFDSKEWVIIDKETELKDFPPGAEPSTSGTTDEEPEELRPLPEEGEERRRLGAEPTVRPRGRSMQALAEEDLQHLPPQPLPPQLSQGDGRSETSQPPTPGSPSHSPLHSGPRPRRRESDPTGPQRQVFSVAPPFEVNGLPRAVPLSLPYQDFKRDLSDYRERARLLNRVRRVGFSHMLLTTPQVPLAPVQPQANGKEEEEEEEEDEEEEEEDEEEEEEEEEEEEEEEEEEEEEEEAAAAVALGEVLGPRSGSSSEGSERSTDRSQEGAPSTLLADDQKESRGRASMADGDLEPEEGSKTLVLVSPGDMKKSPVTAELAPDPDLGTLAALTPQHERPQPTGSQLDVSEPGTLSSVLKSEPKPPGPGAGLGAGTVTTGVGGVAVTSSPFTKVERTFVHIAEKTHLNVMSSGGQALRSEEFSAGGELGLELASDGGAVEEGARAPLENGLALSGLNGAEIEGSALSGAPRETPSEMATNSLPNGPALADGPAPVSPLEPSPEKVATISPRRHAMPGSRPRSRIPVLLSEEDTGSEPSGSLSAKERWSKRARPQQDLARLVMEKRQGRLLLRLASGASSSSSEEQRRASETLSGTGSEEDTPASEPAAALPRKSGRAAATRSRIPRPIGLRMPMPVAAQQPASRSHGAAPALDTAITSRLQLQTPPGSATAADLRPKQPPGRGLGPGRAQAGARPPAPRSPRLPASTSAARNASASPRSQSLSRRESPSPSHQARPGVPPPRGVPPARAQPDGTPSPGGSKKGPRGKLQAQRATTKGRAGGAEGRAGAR

What was measured:
[1] = Selectivity index, ratio of IC50 for recombinant human TTBK1 to IC50 for recombinant human TTBK2
[2] = molecular target: Tau-tubulin kinase 1 (Homo sapiens, UniProt Q5TCY1)

Compound	Selectivity Index [1]	IC50 [2]
Nc1ccc(Oc2ccc(Nc3ncnc4[nH]ccc34)cc2)cc1	0.1	
COc1ccc(Oc2ccc(Nc3ncnc4[nH]ccc34)cc2)cc1	0.55	340 nM
Cc1ccc(Oc2ccc(Nc3ncnc4[nH]ccc34)cc2)cc1	0.11	
N#Cc1ccc(Oc2ccc(Nc3ncnc4[nH]ccc34)cc2)cc1	0.25	
O=[N+]([O-])c1ccc(Sc2ccc(Nc3ncnc4[nH]ccc34)cc2)cc1	0.11	
Clc1cccc(Oc2ccc(Nc3ncnc4[nH]ccc34)cc2)c1	0.02	
Clc1ccccc1Oc1ccc(Nc2ncnc3[nH]ccc23)cc1	1.08	330 nM
FC(F)(F)c1ccc(Oc2ccc(Nc3ncnc4[nH]ccc34)cc2)cc1	0.06	
FC(F)(F)c1cccc(Oc2ccc(Nc3ncnc4[nH]ccc34)cc2)c1	0.06	
